Like-named read-outs stand apart in the source and are kept apart here.

Protein sequences, listed by entry. Tags and fused reporters are not part of them. Residues count along the entry.
UniProt J9SQF3, 1-1709 isoform J9SQF3-12: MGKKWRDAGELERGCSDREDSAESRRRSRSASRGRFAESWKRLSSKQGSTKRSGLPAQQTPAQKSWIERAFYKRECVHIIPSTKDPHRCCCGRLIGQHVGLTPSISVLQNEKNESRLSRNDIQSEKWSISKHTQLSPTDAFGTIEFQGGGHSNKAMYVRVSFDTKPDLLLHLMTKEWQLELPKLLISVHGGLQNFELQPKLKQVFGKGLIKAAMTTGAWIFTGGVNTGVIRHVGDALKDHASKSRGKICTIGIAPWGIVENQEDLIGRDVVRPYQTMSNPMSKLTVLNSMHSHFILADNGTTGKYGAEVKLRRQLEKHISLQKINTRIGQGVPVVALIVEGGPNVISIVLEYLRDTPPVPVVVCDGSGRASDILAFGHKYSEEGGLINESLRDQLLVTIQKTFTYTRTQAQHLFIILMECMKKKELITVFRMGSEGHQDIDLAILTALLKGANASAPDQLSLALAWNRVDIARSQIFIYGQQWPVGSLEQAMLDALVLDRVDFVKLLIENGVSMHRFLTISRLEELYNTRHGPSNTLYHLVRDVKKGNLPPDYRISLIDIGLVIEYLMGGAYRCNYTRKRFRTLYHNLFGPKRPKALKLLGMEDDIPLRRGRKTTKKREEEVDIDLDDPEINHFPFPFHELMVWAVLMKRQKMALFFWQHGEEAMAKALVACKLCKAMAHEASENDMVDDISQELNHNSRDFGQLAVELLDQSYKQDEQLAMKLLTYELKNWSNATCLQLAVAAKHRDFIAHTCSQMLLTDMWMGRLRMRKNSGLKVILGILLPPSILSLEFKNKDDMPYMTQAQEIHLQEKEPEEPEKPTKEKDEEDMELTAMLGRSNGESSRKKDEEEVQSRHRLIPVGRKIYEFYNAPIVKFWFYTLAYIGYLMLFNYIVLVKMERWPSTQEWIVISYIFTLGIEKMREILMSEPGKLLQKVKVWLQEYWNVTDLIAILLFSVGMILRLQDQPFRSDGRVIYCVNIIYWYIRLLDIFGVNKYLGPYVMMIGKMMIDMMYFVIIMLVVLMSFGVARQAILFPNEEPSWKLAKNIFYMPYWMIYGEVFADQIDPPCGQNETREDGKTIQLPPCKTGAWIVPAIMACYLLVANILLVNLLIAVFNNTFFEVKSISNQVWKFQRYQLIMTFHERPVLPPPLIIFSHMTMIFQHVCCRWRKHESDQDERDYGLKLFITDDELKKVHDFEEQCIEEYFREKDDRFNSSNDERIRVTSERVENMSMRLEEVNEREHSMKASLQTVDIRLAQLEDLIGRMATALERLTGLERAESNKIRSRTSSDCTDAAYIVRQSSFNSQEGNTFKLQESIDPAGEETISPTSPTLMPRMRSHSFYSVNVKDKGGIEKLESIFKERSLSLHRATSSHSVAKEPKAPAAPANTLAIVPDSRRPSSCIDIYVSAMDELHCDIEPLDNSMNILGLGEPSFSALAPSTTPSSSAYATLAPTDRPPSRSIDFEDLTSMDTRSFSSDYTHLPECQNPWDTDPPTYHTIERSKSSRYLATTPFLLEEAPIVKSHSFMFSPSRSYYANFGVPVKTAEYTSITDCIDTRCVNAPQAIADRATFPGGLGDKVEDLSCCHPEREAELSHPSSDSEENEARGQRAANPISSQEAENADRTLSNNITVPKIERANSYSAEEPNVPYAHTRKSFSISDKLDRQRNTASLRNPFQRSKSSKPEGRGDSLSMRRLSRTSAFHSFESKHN

We go through one substance from patent US20210299144A1, “USE OF PR[…] TO REDUCE CYST FORMATION IN KIDNEY” (priority 2019, published 2021).

Data set [1] concerns the target TRPM3α2 channels (Mus musculus, UniProt J9SQF3). As to conditions: read-out: half-maximal effect, cited from earlier work.
Data set [2] in a line: Concentration of pregnenolone sulfate in standard external solution (HPLC-UV/Vis). It is filed as physicochemical. As to conditions: standard external solution pH 7.4, room temperature, 10-60 min. How it is done:
For the electrophysiological studies, pregnenolone sulfate was prepared at nominal concentrations up to 300 μM in standard external solution. […] In order to determine the maximum stable concentration of pregnenolone sulfate in the external solution, aliquots of pregnenolone sulfate in dimethyl sulfoxide (DMSO) were diluted in external solution to final concentrations of 50, 200, 300, and 500 μM in duplicate, sonicated in a sonication bath (Thermo Fisher Scientific, Waltham, Mass., USA) for 1 min, and left at room temperature (25° C.) for 10, 30, or 60 min. […] Given the simple nature of the samples, HPLC-UV/Vis was used to determine the pregnenolone sulfate concentrations by adapting the method of Sanchez-Guijo et al. (see Sanchez-Guijo A, Oji V, Hartmann M F, Traupe H, Wudy S A “Simultaneous quantification of cholesterol sulfate, androgen sulfates, and progestagen sulfates in human serum by LC-MS/MS.” J Lipid Res. 2015; 56: 1843-1851), which is herein incorporated by reference in its entirety. […] The total flow rate was 1 mL min^−1 with a gradient as follows: 0 min, 80% A/20% B; 20 min, 30% A/70% B; 23 min, 1% A/99% B; 25 min, 1% A/99% B; 28 min, 80% A/20% B. An equilibration time of 10 min was used after each injection, and the absorbance at 215 nm (A215) was used for quantification based on the peak height. […]

As to Pregnenolone sulfate, the EC50 in data set [1] (+80 mV) is 12 µM; in data set [1] (−80 mV), 23 µM. The “solubility limit / true concentration at nominal 300 μM in standard external solution” value was 232 ± 9 µM in data set [2] and 230 µM in data set [2] (listed as Pregnenolone sulfate).
